Results as given in PubChem BioAssay AID1259398 (Fisher Drug Discovery Resource Center, 2018).
The list shows a part of the results, in another mix than the full data. Active and inactive are the calls of the source. Cut-off read from the data, not from the text of the source: active = inhibition above about 40%; inactive = the rest.

By UniProt entry, the sequences of proteins in these tests, tags left out.
UniProt Q8N884, whole entry: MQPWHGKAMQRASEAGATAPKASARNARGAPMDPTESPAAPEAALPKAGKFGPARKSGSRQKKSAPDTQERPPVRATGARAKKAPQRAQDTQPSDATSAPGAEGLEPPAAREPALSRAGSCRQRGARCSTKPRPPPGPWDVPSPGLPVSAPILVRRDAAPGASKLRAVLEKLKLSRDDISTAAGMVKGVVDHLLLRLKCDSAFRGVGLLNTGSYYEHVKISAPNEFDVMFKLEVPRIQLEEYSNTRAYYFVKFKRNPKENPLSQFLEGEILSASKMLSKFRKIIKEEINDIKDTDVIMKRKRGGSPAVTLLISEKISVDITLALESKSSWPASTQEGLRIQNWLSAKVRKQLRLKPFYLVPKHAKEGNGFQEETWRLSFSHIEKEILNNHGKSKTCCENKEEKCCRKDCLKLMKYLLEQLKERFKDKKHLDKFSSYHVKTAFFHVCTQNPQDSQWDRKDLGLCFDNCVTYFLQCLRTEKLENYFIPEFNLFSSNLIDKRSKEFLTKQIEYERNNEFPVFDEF

Target: Cyclic GMP-AMP synthase (Homo sapiens) (UniProt Q8N884)
Experiment: Primary biochemical luminescence assay for human cyclic GMP-AMP synthase inhibitors (AID 1259398);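 note: 0% = vehicle reaction and 100% = reaction without DNA for no activity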
Details: recombinant h-cGAS, ATP depletion, Kinase-Glo luminescence; at 12.5 µM; stronger effect = higher value

| Structure (SMILES) | inhibition |
| --- | --- |
| CN(CCCl)CCCl | inactive: 3.1% |
